From US9636335B2, “Heteroaryl compounds as 5-HT4 receptor ligands” (Suven Life Sciences Ltd, priority 2011, dated 2017)

Legend:
rats = assay: Radial arm maze, reversal of scopolamine induced amnesia; format: in vivo; details: p.o., rat
Excerpt: The cognition enhancing properties of compounds of this invention were estimated by using this model.
Radial arm maze consists of a central hub of 45 cm diameter. Each arm was of dimension 42.5×15×24 cm. The maze was elevated to a height of 1 m above the ground. […] During this diet restriction period animals were habituated to the novel feed (pellets). […] Animals were randomized on day 2. On the subsequent days the treatment was given as per the allotment. Each animal was introduced into the maze individually for a period of 10 minutes. The arms were baited only once and the animal had to learn the rule that repeated arm entries would not be rewarded. The trial ended once the rat had visited 16 arms or 10 minutes were over or all the pellets were eaten. The arm entries were recorded using the software. Once the trial was over the rat was removed and the maze was cleaned using soap water.

Male Wister rats = assay: Object recognition task model; format: in vivo; details: 3 mg/kg, p.o., rat

SMILES: COCCCN1CCC(c2nnc(-c3nn(C(C)C)c4ccccc34)o2)CC1.O=C(O)C(=O)O [Example 3, 1-isopropyl-3-{5-[1-(3-methoxypropyl)piperidin-4-yl]-[1,3,4]oxadiazol-2-yl}-1H-indazole oxalate salt]
- Reversal of Scopolamine Induced amnesia - Effective dose range (rats): 1-3 mg/kg, p.o.
- Inference (Male Wister rats): Active
